Reference: patent US20250213547A1, “METHODS OF TREATING NEUROLOGICAL DISEASES” (priority 2022, published 2025)

Legend:
[1] = Multiple rising dose study: PK of soticlestat and M-I (day 1, day 14), oral solution; conditions: both, human, in vivo
Text: The second trial was a phase I, randomized, double-blind, placebo-controlled study, with soticlestat administered by oral solution at multiple escalating doses in healthy subjects. The criteria for subject inclusion and exclusion are similar to those of the first trial described above but with the added screening of female subjects for pregnancy. Five cohorts with eight subjects each, including two placebos, were randomized to receive soticlestat by oral solution for 14 days. After a cohort finished their dosage regimen, a decision was made whether to escalate the dosage for the next cohort. Cohorts 1, 2, and 3 received 100, 300, and 400 mg once daily (QD), respectively, and cohorts 4 and 5 received 300 mg twice daily (BID) or 600 mg QD. The regimen for cohorts 4 and 5 were discontinued after subjects began experiencing adverse neurological and psychiatric events. Example 6 describes the PK protocol and the results.
The blood sampling protocol included obtaining a 4-ml blood sample for PK analysis 30 minutes pre-dose, and at 10, 15, 20, and 30 minutes and 1, 1.5, 2, 3, 4, 6, 8, 10, 12, 16, and 24 hours post-dose on days 1 and 14. Cohort 3, receiving 400 mg QD, had additional blood samples taken on day 7 at 15 and 30 minutes, and 1, 2, 4, and 8 hours post-dose. […] The median time for Cmax (Tmax) across the dose range varied between 0.33-0.5 hours. […] The 24 hour plasma area under the concentration-time curve (AUC24) for doses 100, 300, and 400 mg at day 14 were 458, 2690, and 2800 ng×h/mL, respectively. The concentration time profiles were similar from day 1 through day 14. […]
Blood samples were obtained for soticlestat and M-I PK data on days 1 and 14 at −30 minutes pre-dose and at 10, 15, 20, and 30 minutes, and post-dose at 1, 1.5, 2, 3, 4, 6, 8, 10, 12, 16, and 24 hours. […] Plasma and urine soticlestat and M-I concentrations were measured and validated as described in example 2. […] An analysis of variance (ANOVA) assessed the variation in time dependency for Cmax and AUC∞ on day 1 and day 14 for cohorts receiving once daily dosing. […]

[2] = Multiple rising dose study: safety (TEAEs) in healthy subjects over 14 days; type: in vivo, human; conditions: healthy men and women, up to 400 mg daily
Protocol: Soticlestat safety metrics were obtained from the patients described in example 6. The rising dose study tested the safety and tolerability of soticlestat dosages in healthy subjects over 14 days. Subjects were monitored during the study and a full review was conducted after each rising dose. Safety data monitoring included vitals, physical and visual examinations, electrocardiogram, BMI, and clinical laboratory tests. There was no clinically relevant findings. Percentages are rounded to one decimal place. A subject with two or more different adverse events (AE) within the same levels of the MedDRA term and treatment is counted only once at that level using the most related or severe incident. A TEAE is defined as an AE or SAE that occurs or gets worse after receiving the first dose of study drug and within 30 days after the last dose of study drug.

[3] = human, in vivo
Text: Other inclusion criteria were body weight ≥10 kg, currently taking a fixed dosage of 1 to 4 antiseizure medications, and failure to remain seizure free after trying at least two antiseizure medications. Convulsive seizures include focal to bilateral tonic-clonic with impaired awareness, hemi-clonic, simultaneous bilateral clonic, and generalized tonic-clonic seizures. Drop seizures can involve the entire body, trunk, or head which leads to falling. […] Approximately 126 patients ages ≥2 and ≤17 years were enrolled in the study. The study included two main phases, a 4-6 week screening and baseline period, and a 20-week treatment period. Patients received doses twice a day in a tablet formulation. The starting dose was adjusted according to the patient's body weight (Table 17).
During the first 8 weeks of treatment patient dosing was a titrated for individual optimization. The remaining 12-weeks of treatment consisted of a maintenance phase. The study began with treating patients ≥9 years of age for one month before treating younger patients. Blood was collected for PK analysis on the first dosage day within one hour of the morning dose, and 30 minutes, and 1, 2, 3, and 4 hours post-dose. Subsequent blood sampling took place before the morning dose and 30 minutes post-dose. Blood samples were obtained at scheduled times for determining PK profile and Tmax, which is the time Cmax was reached. A patient's seizure frequency was recorded before and during the trial to calculate percent change from baseline.
The PK model parameters can be used as a tool to estimate PK and drug exposure in an individual or a population (such as with ELEKTRA), as well as to calculate individualized dosing based on covariates. For example, optimal daily dosing can be calculated using the area under the concentration time curve and clearance values (dose=targetAUC24×CL). Blood sampling at steady-state was limited in the ELEKTRA study, thus some of the PK parameters shown in Table 32 for the ELEKTRA population were simulated by interpolation.
The dots represent the simulation and the numbers below the dot represent the simulated covariate value, while the values above the dots show the percent change from the reference level. The vertical line labeled “ref” depicts the reference level. […] The CV % refers to the coefficient of variation assuming a log-normal distribution, derived as […], where σ denotes the standard deviation of the log-transformed values.
The term AUC(0-tau) stands for AUC to the end of the dosing period. The covariate effects were analyzed using exposure parameters AUC, Cmax, and Ctrough.

[4] = Healthy Japanese subjects, Part 1 (single dose 200, 600, 1200 mg tablets): PK of TAK-935 and M-I; type: in vivo, human; conditions: plasma, mean (% CV)
Protocol: (§1) This study consisted of 2 parts, and was a randomized, double-blind, placebo-controlled study to assess safety, tolerability, and PK and PD of TAK-935 when administered orally in healthy Japanese subjects.
On Day 1 of each dose level, a single dose of TAK-935 or placebo was administered, and safety, PK and PD were evaluated.
After the screening visit, eligible participants checked—in on Day-2. On Day 1, eligible participants were randomized 6:2 to TAK-935 or placebo in each dose group in double-blinded fashion. No stratification variables were used for randomization. On the same day, study drug was administered by oral administration of single dosing of TAK-935 to each cohort at each dose level. The subjects were discharged on Day 3. Intensive PK samplings were performed from Day 1 to Day 3.
Subjects received a single dose of TAK-935 or placebo of 200 mg, 600 mg, or 1200 mg with 150 mL of water, after fasting for at least 10 hours and remained fasted until 4 hours after dosing.
(§2) Blood samples for PK analysis of TAK-935 and its metabolites (M-I) were collected into blood collection tubes (vacutainer) containing the anticoagulant K2EDTA (Table 40e and Table 40f).
(§3) The PK parameters of TAK-935 and its metabolites (M-I) were determined from the concentration-time profiles for all evaluable subjects. Actual sampling times, rather than scheduled sampling times, were used in all computations involving sampling times. The following PK parameters were calculated from plasma concentrations of TAK-935 and its metabolites (M-I), unless otherwise specified: […]

[5] = Healthy Japanese subjects, Part 2 (100, 200, 300 mg BID up-titration): PK of TAK-935 and M-I; type: in vivo, human; conditions: for AUCτ/D (dose-normalized AUC during a dosing interval) / Cmax/D (dose-normalized): plasma, mean (% CV)
Protocol: as §1
TAK-935 or placebo was administered to the 9 subjects at the dose of 100 mg BID from Day 1 to Day 7, then 200 mg BID from Day 8 to Day 14, and finally 300 mg BID from Day 15 to Day 21, and safety, PK and PD were investigated. The planned dose levels of TAK-935 to be evaluated are outlined in Table 40a.
After the screening visit, eligible participants checked—in on Day-2. On Day 1, eligible participants were randomized 6:3 to TAK-935 or placebo in double-blinded fashion. No stratification variables were used for randomization. Study drug was administered every day by oral administration of multiple dosing with up-titration of TAK-935 to 9 subjects firstly at 100 mg BID from Day 1 to Day 7, then at 200 mg BID from Day 8 to Day 14, and finally at 300 mg BID from Day 15 to Day 21, successively. The subjects were discharged on Day 24. Intensive PK samplings were performed on Day 1, Day 7, Day 14 and Day 21.
Subjects received multiple oral doses of TAK-935 or placebo escalating from 100 mg BID, 200 mg BID, and then to 300 mg BID with 150 mL of water for 7 days per each dose level. For the morning dose, subjects were kept fasted for at least 8 hours before administration and up to 2 hours after administration. The evening dose was administered at any time between 8 hours and 12 hours after the morning dose, but prior to the evening meal except for Days 1, 7, 14, and 21. On Days 1, 7, 14, and 21, the evening dose was administered 12 hours after the morning dose and prior to the evening meal. • Identity of Study Drugs • Study drug refers to TAK-935 100 mg tablet and matching placebo. • Compound: Code name: TAK-935 • Dosage forms: TAK-935 100 mg tablets and matching placebo tablets were used in this study. The TAK-935 tablets and placebo tablets were yellow-red film-coated tablets for oral administration.
as §2, §3

[6] = Day 7, TAK-935 100 mg BID, mean
[7] = TAK-935, multiple doses 100 mg BID

O=C(c1cccnc1-c1ccncc1)N1CCC(O)(Cc2ccccc2)CC1 [soticlestat]
fold increase in AUC24 over 4-fold dose range [1]: 6.12 fold
fold increase in Cmax over 4-fold dose range [1]: 6.08 fold
fold increase in Cmax over 6-fold dose range [1]: 6.55-9.35 fold
safety/tolerability conclusion [2]: safe and tolerated
CL/F [3]: 13.03 to 691.15 L/h
Q/F [3]: 8.17 to 347.85 L/h
V2/F [3]: 11.94 to 633.51 L
V3/F [3]: 24.13 to 1235.17 L
AUClast/D (dose-normalized) ([4]; TAK-935 200 mg single dose): 3.476 (89.9) h*ng/mL/mg
AUC∞/D (dose-normalized) ([4]; TAK-935 200 mg single dose): 3.605 (88.3) h*ng/mL/mg
Cmax/D (dose-normalized) ([4]; TAK-935 200 mg single dose): 4.250 (139.3) ng/mL/mg
AUClast/D (dose-normalized) ([4]; TAK-935 600 mg single dose): 6.432 (49.6) h*ng/mL/mg
AUC∞/D (dose-normalized) ([4]; TAK-935 600 mg single dose): 6.537 (48.6) h*ng/mL/mg
Cmax/D (dose-normalized) ([4]; TAK-935 600 mg single dose): 5.473 (49.5) ng/mL/mg
AUClast/D (dose-normalized) ([4]; TAK-935 1200 mg single dose): 9.480 (44.2) h*ng/mL/mg
AUC∞/D (dose-normalized) ([4]; TAK-935 1200 mg single dose): 9.550 (44.1) h*ng/mL/mg
Cmax/D (dose-normalized) ([4]; TAK-935 1200 mg single dose): 8.465 (47.9) ng/mL/mg
Rac(AUC) (accumulation ratio based on AUC) [5, 6]: 1.054
Rac(Cmax) (accumulation ratio based on Cmax) [5, 6]: 1.047
AUCτ/D (dose-normalized AUC during a dosing interval) ([5]; Day 7, TAK-935 100 mg BID): 2.244 (48.8) h*ng/mL/mg
Cmax/D (dose-normalized) ([5]; Day 7, TAK-935 100 mg BID): 2.037 (86.7) ng/mL/mg
AUCτ/D (dose-normalized AUC during a dosing interval) ([5]; Day 14, TAK-935 200 mg BID): 4.302 (44.9) h*ng/mL/mg
Cmax/D (dose-normalized) ([5]; Day 14, TAK-935 200 mg BID): 4.903 (54.7) ng/mL/mg
AUCτ/D (dose-normalized AUC during a dosing interval) ([5]; Day 21, TAK-935 300 mg BID): 6.730 (25.2) h*ng/mL/mg
Cmax/D (dose-normalized) ([5]; Day 21, TAK-935 300 mg BID): 6.883 (39.9) ng/mL/mg
accumulation ratio for AUC [5, 7]: 1.054
accumulation ratio for Cmax [5, 7]: 1.047
